Tests used:
Y4 receptors [1] = molecular target: T1, Y4 receptors (Homo sapiens, UniProt P50391); conditions: Michel et al. 1998; cited from earlier work
Y4 receptors [2] = molecular target: T1, Y4 receptors; test: Human Y4 receptor potency assay (inositol phosphate turnover, transfected COS-7 cells); assay type: cell-based; set-up: expressed in transfected cells; host or cells: COS-7 cells, transient transfection; conditions: ratio of potencies, Y2 vs Y4 potency assays
Protocol: Potency of the test compounds on the human Y2 receptor is determined by performing dose-response experiments in COS-7 cells transiently transfected with the human Y2 receptor cDNA as well as a promiscuous G protein, Gqi5 which ensures that the Y2 receptor couples through a Gq pathway leading to an increase in inositol phosphate turnover.
Phosphatidylinositol turnover—One day after transfection COS-7 cells are incubated for 24 hours with 5 μCi of [3H]-myo-inositol (Amersham, PT6-271) in 1 ml medium supplemented with 10% fetal calf serum, 2 mM glutamine and 0.01 mg/ml gentamicin per well. Cells are washed twice in buffer, 20 mM HEPES, pH 7.4, supplemented with 140 mM NaCl, 5 mM KCl, 1 mM MgSO4, 1 mM CaCl2, 10 mM glucose, 0.05% (w/v) bovine serum; and are incubated in 0.5 ml buffer supplemented with 10 mM LiCl at 37 C for 30 min. After stimulation with various concentrations of peptide for 45 min at 37 C, cells are extracted with 10% ice-cold perchloric acid followed by incubation on ice for 30 min. The resulting supernatants are neutralized with KOH in HEPES buffer, and the generated [3H]-inositol phosphate are purified on Bio-Rad AG 1-X8 anion-exchange resin and counted in a beta counter. Determinations are made in duplicates. EC50 values were calculated using a standard pharmacological data handling software, Prism 3.0 (graphPad Sofware, San Diego, USA). […]

Amino acid sequences for entries named in this document (tags omitted). A change or cut given only in a name is not applied to a line headed by its entry.
UniProt P50391: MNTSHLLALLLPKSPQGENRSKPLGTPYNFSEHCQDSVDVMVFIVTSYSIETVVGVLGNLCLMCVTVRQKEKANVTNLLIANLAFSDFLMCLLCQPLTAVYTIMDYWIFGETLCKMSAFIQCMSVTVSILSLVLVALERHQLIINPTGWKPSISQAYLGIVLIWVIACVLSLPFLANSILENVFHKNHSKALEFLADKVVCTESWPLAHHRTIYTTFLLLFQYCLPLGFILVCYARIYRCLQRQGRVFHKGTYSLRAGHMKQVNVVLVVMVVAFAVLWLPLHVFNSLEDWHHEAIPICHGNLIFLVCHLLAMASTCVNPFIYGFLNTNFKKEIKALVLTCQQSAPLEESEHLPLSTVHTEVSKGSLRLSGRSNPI

colonic damage = conditions: animal model for inflammatory bowel disease; cited from earlier work

more potent towards the Y2 receptor than towards the Y4 receptor (Y4 receptors [2])	Substance	affinity for Y4 receptors (Y4 receptors [1])	colonic damage (colonic damage)
	PYY: naturally secreted 36 amino acid, C-terminally amidated PP-fold peptide [Peptide YY]	nanomolar	
more than 10,000 fold	PYY3-36		reduce colonic damage

— patent US20110251126A1, “INTESTINAL TREATMENT” (priority 2008, published 2011)
